# Test results published in PMC8154177 (Circulation, 2021).
# What was measured:
# Assay type in all cases: cell-based
# human Nav1.5 W1345L = biological target: T1, human Nav1.5 W1345L (Homo sapiens, UniProt Q14524, W1345L); experiment: Whole-cell patch-clamp of recombinant Nav1.5 W1345L mutant, H2O2-induced late-INa; conditions: 10 µmol/L
# T1 construct: host or cells: HEK293T
# Protocol: (§1) The human Nav1.5 gene (SCN5A) in the pcDNA3.1(+)/C-(K)DYK vector (GenScript, Cat No. OHu18270D, USA) was cotransfected with a GFP vector into HEK293T cells using Lipofectamine 3000 (Invitrogen, Cat No. L3000001, USA). Transfected cells were seated on coverslips and used for functional studies within 48 to 72 hours. […] PCR products were cloned into XL-10 Gold Ultracompetent cells (Agilent, Cat No. 200315, USA), and DNA was isolated and purified by GeneElute Plasmid Miniprep kits (Sigma, Cat No. PLN350, USA). The presence of the desired mutations and the integrity of plasmids were then verified by DNA sequencing (The Applied Genomics Core, University of Alberta). The R1623Q LQT3 mutation in human Nav1.5 was constructed as described previously.[42]
# (§2) Pipettes were pulled from borosilicate glass (World Precision Instruments, Sarasota, FL) using a P-87 micropipette puller (Sutter Instruments, Novato, CA), and the tips were fire-polished, yielding resistances of 3 to 4 MΩ. The pipette solution contained (in mmol/L) 130 CsCl, 5 NaCl, 5 TEA (tetra-ethyl ammonium chloride)-Cl, 2.5 HEPES, 1 EGTA, and 2 MgATP. The pH was adjusted to 7.2 with CsOH. The extracellular solution contained (in mmol/L) 140 NaCl, 10 HEPES, 1 CaCl2, 1.4 MgCl2, 5 KCl, and 5 glucose (pH adjusted to 7.4 with NaOH).
# human Nav1.5 F1760L = biological target: T2, human Nav1.5 F1760L (Homo sapiens, UniProt Q14524, F1760L); experiment: Whole-cell patch-clamp of recombinant Nav1.5 F1760L mutant, H2O2-induced late-INa; conditions: 10 µmol/L
# T2 construct: host or cells: HEK293T
# Protocol: as §1, §2
# human Nav1.5 Y1767L = biological target: T3, human Nav1.5 Y1767L (Homo sapiens, UniProt Q14524, Y1767L); experiment: Whole-cell patch-clamp of recombinant Nav1.5 Y1767L mutant, H2O2-induced late-INa; conditions: 10 µmol/L; not to the same extent as in WT
# T3 construct: host or cells: HEK293T
# Protocol: as §1, §2
structure (smiles),measurement,setting,value
OC[C@H]1O[C@@H](c2ccc(Cl)c(Cc3ccc(O[C@H]4CCOC4)cc3)c2)[C@H](O)[C@@H](O)[C@@H]1O [empagliflozin],Effect on H2O2-induced late-INa in W1345L,human Nav1.5 W1345L,insensitive
same,Effect on H2O2-induced late-INa in F1760L,human Nav1.5 F1760L,insensitive
same,Effect on H2O2-induced late-INa in Y1767L,human Nav1.5 Y1767L,significantly inhibited
